Results: patent publication US20130171163A1, “Inhibition of LAR Phosphatase to Enhance Therapeutic Angiogenesis” (priority 2010, published 2013)

The chains behind the UniProt entries cited, without tags or fusion partners. Residues count along the entry.
UniProt P08069, 741-1367 limits assumed: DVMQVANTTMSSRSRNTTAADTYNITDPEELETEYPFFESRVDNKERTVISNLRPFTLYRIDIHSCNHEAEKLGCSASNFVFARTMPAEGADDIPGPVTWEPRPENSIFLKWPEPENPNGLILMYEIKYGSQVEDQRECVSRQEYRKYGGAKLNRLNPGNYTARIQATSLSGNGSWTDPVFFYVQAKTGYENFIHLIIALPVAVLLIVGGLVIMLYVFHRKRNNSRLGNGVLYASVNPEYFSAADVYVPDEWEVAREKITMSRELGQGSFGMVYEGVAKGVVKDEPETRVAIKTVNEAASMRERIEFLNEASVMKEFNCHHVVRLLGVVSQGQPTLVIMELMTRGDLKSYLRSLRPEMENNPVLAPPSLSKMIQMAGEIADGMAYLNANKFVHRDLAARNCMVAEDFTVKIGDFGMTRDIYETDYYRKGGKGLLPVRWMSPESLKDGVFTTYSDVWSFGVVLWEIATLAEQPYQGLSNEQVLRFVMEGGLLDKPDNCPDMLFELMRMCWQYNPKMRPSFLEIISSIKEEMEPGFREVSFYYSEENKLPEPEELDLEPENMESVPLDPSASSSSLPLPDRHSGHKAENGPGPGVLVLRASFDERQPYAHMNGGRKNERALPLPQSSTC
UniProt P08069, 31-736 limits assumed: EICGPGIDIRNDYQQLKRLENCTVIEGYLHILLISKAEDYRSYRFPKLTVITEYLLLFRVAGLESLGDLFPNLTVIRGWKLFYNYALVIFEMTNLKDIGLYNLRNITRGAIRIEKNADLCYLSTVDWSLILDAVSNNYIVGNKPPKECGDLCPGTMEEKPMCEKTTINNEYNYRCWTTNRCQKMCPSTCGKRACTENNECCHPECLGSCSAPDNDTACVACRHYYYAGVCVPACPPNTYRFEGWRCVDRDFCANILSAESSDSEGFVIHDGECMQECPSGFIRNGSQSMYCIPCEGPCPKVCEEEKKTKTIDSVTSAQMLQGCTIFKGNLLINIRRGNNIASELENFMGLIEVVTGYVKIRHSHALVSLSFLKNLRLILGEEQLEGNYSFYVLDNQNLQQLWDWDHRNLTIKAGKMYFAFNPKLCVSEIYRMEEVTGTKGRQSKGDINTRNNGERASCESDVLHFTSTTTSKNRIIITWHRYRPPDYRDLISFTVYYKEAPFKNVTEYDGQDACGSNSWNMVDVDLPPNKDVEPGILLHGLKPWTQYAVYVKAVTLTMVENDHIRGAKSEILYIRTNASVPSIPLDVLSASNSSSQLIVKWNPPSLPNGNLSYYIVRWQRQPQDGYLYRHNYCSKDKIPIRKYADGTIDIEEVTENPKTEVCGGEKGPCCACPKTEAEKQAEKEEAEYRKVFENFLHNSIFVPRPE

Biological target: T1, IGF-1Rβ-LAR complex (Homo sapiens, UniProt P08069)
T1 construct: LAR co-immunoprecipitated with IGF-1Rβ in untreated HUVECs; endogenous in cells; host or cells: HUVEC (Cambrex)
Experiment: Co-immunoprecipitation of LAR with IGF-1Rβ in HUVECs
Assay type: cell-based
Conditions: 100 ng/ml IGF-1 for 10 min
Description: Preparation of cell lysates, immunoprecipitation and immunoblotting were performed as described (Reinmuth et al., Clin. Cancer Res. 8:3259 (2002)).
Analogous experiments were performed to determine whether binding of LAR to IGF-1Rβ accounts for the negative regulation of IGF-1Rβ by this PTP in HUVECs. Cell lysates from HUVECs, treated without or with IGF-1, were immunoprecipitated with anti-cytoplasmic LAR (cLAR) antibody and Western blotting was performed with anti-IGF-1Rβ antibody.

Substance: IGF-1: Recombinant human IGF-1 purchased from R&D Systems
- Association of LAR with IGF-1Rβ: significantly enhanced
